The list shows a part of the results, in another mix than the full data. The source made the active and inactive calls.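 Rule for the calls: active = activation above the run's mean compound activation plus 3 SD (cut at about 16% in these data); inactive = the rest.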

Sequences of proteins named here, by UniProt entry; tags and fusion partners are left off.
UniProt P11229, whole entry: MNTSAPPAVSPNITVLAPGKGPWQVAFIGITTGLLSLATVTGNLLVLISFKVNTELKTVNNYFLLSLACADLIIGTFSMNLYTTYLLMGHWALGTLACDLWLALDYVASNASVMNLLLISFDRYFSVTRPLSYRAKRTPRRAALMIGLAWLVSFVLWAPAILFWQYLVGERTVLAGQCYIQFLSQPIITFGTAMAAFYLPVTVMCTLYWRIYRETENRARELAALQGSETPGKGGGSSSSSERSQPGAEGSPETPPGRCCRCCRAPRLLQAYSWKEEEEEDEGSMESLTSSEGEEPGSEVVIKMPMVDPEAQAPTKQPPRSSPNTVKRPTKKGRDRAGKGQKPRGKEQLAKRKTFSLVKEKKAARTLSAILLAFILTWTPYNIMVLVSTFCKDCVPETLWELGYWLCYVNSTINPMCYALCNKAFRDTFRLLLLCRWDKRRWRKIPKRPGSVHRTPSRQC

The target in the test is Muscarinic acetylcholine receptor M1 (Homo sapiens) (UniProt P11229). The test is described as follows: CHRM1 activation via calcium signal – Fluo-8 calcium fluorescence, CHO-K1 cells, HTS, primary screen (AID 588814).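 Note: peak over basal fluorescence ratio within a 140 s kinetic read after compound addition.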 To be noted: CHO-K1 hM1, Fluo-8 calcium fluorescence, agonist mode; at 3 µM; active compounds read high; 0% DMSO, 100% acetylcholine EC100.
As to `CP(=O)(Oc1ccccc1)OC(c1ccccc1)C(F)(F)F` (stereo unspecified), the activation was inactive: -6.83%.

For the compound `Cc1ccc(Nc2c([N+](=O)[O-])cc([N+](=O)[O-])cc2[N+](=O)[O-])cc1`, the activation was inactive: -0.38%.

As for `Cc1cccc(C)c1OP(C)(=O)Nc1ccc(SC(F)(F)F)cc1` (stereo unspecified), the activation is inactive: -7.38%. Then `CP(=O)(Nc1ccc(SC(F)(F)F)cc1)Oc1ccc(Cl)cc1` (stereo unspecified), with inactive: -5.17%. Then `COc1ccccc1OP(C)(=O)Nc1ccccc1` (stereo unspecified), with inactive: -3.23%; and `CP(=O)(Nc1ccccc1Br)Oc1ccccc1` (stereo unspecified), with inactive: -3.62%. Then `CP(=S)(Nn1cnnc1)Oc1ccccc1` (stereo unspecified), with inactive: 0.89%; and `CCCCOc1ccc(C(=O)NCC2(N3CCCCC3)CCCCC2)cc1OC`, with inactive: -9%. As for `COc1ccc(OP(C)(=O)Nc2cccc(F)c2)cc1` (stereo unspecified), the activation is inactive: -3.61%. The figure for `COc1ccccc1OP(C)(=O)Nc1cc(Cl)ccc1C` (stereo unspecified) is inactive: -7.08%. On to `Cc1cc(C)cc(OP(C)(N)=O)c1` (stereo unspecified), for which the activation is inactive: -3.32%. Then `CCOC(=O)c1ccc(NP(C)(=O)Oc2ccccc2)cc1` (stereo unspecified), with inactive: 0.07%; and `Cc1ccc(NP(C)(=O)Oc2ccccc2)c(C)c1` (stereo unspecified), with inactive: -3%. The figure for `COc1ccccc1OP(C)(=O)Nc1ccc(C)cc1` (stereo unspecified) is inactive: -0.99%; for `Cc1cccc(C)c1OP(C)(N)=O` (stereo unspecified) it is inactive: -2.45%; for `CC(C)(C)c1ccc(OP(C)(=O)Nc2ccc(SC(F)(F)F)cc2)cc1` (stereo unspecified) it is inactive: -9.03%. As to `O=[N+]([O-])c1ccc2c(c1)C=Nc1ccccc1O2`, the activation is inactive: -5.08%. In the case of `O=[N+]([O-])c1cc([N+](=O)[O-])c(Nc2cccnc2)c([N+](=O)[O-])c1`, the activation is inactive: 3.32%. Then `COc1cc(C(=O)NCC2(N3CCOCC3)CCCCC2)ccc1OCC(C)C`, with inactive: -5.56%. Then `CCN(CC)CCCOC(=O)C(O)(c1ccccc1)c1ccccc1`, with inactive: -6.89%; and `Cc1cc(C)cc(OP(C)(=O)Nc2ccccn2)c1` (stereo unspecified), with inactive: -3.01%; and `CP(=O)(Nc1cccc(Br)c1)Oc1ccccc1` (stereo unspecified), with inactive: -2.42%.

As for `Cc1ccc(C)c(NP(C)(=O)Oc2ccccc2)c1` (stereo unspecified), the activation is inactive: 7.83%. Take `Cc1cc(C)cc(OP(C)(=O)Nc2ccc(C)cc2C)c1` (stereo unspecified): the activation is inactive: -6.72%. Then `CCOC(=O)c1ccc(NP(C)(=O)Oc2cc(C)cc(C)c2)cc1` (stereo unspecified), with inactive: -4.45%; and `COc1ccccc1OP(C)(=O)Nc1cccc(Br)c1` (stereo unspecified), with inactive: -2.56%; and `COc1cc(C(=O)NCC2(N3CCOCC3)CCCCC2)cc(Cl)c1OC(C)C`, with inactive: -9.07%. Then `CC1=NCCc2c1[nH]c1ccccc21.O=[N+]([O-])c1cc([N+](=O)[O-])c(O)c([N+](=O)[O-])c1`, with inactive: -5.28%; and `O=C(O)c1cccc(Nc2c([N+](=O)[O-])cc([N+](=O)[O-])cc2[N+](=O)[O-])c1`, with inactive: -2.35%. The figure for `CCCOc1ccc(NP(C)(=O)Oc2ccc(Cl)cc2)cc1` (stereo unspecified) is inactive: -12.4%.

For `CP(=O)(Nc1ccc(SC(F)(F)F)cc1)Oc1ccccc1` (stereo unspecified), the activation is inactive: -4.66%. Then `COc1ccccc1OP(C)(=O)Nc1c(C)cccc1C` (stereo unspecified), with inactive: -4.92%; and `CN1CCCCC1COC(=O)C1(O)c2ccccc2CCc2ccccc21` (stereo unspecified), with inactive: -12.9%; and `CCOC(=O)C(CC)C1=NC(C)(C)Cc2ccccc21.O=[N+]([O-])c1cc([N+](=O)[O-])c(O)c([N+](=O)[O-])c1` (stereo unspecified), with inactive: -4.41%. The figure for `CN(C)C1(CNC(=O)c2ccc(S(C)(=O)=O)cc2)CCCCC1` is inactive: -2.85%; for `CC1=C2N=C(C=C3N=C(C(C)=C4[N-][C@@](C)([C@@H]5N=C1[C@](C)(CCC(=O)NC[C@@H](C)OP(=O)([O-])O[C@H]1[C@@H](O)[C@@H](n6cnc7cc(C)c(C)cc76)O[C@@H]1CO)[C@H]5CC(N)=O)[C@@](C)(CC(N)=O)[C@@H]4CCC(N)=O)[C@@](C)(CC(N)=O)[C@@H]3CCC(N)=O)C(C)(C)[C@@H]2CCC(N)=O.[C-]#N.[Co+3]` it is inactive: -1.37%; for `O=[N+]([O-])c1cc([N+](=O)[O-])c(Nc2nnnn2CCO)c([N+](=O)[O-])c1` it is inactive: 2.65%. The figure for `Cc1nc2ccc3ccccc3c2s1.O=[N+]([O-])c1cc([N+](=O)[O-])c(O)c([N+](=O)[O-])c1` is inactive: -4.47%. Take `O=[N+]([O-])c1cc([N+](=O)[O-])c(-c2cnn(-c3ccccc3)c2)c([N+](=O)[O-])c1`: the activation is inactive: -3.24%.

As to `CN(Cc1cccnc1)C(=O)COc1ccc(Cl)c(Cl)c1.O=[N+]([O-])c1cc([N+](=O)[O-])c(O)c([N+](=O)[O-])c1`, the activation is inactive: 1.35%. The figure for `O=[N+]([O-])c1cc([N+](=O)[O-])c(-n2nnc3ccccc32)c([N+](=O)[O-])c1` is inactive: -0.19%.

The values are drawn from PubChem BioAssay AID588814 (The Scripps Research Institute Molecular Screening Center, 2011).
